Results: patent publication EP3632916B1, “MORPHINAN COMPOUNDS” (Concert Pharmaceuticals Inc., priority 2007, dated 2008)

Columns and labels:
[1] = Metabolic stability in cynomolgus monkey liver microsomes; details: 1µM of each compound, 0.5 mg/mL microsomes; compared with dextromethorphan; Figure 1
Procedure: (§1) The objectives of this study were to determine the metabolic stability of the test compounds in pooled human and chimpanzee liver microsomal incubations. Samples of the test compounds, exposed to pooled human or chimp liver microsomes, were analyzed using HPLC-MS (or MS/MS) detection. For determining metabolic stability, multiple reaction monitoring (MRM) was used to measure the disappearance of the test compounds.
(§2) Experimental Procedures: Human liver and Cynomolgus monkey liver microsomes were obtained from XenoTech, LLC (Lenexa, KS).
(§3) Incubation of Test Compounds with Liver Microsomes: The reaction mixture, minus cofactors, was prepared. […] Another aliquot of the reaction mixture was prepared as the negative control. […] An aliquot of the reaction mixture was prepared as a blank control, by the addition of plain organic solvent (no test compound is added).
(§4) All samples were analyzed using LC-MS (or MS/MS). An LC-MRM-MS/MS method is used for metabolic stability.

[2] = Metabolic stability in human liver microsomes; details: 0.25µM of each compound, 2 mg/mL human liver microsomes; Figure 2
Procedure: as §1, §2, §3, §4

[3] = Urine levels in cynomolgus monkeys after oral administration with quinidine; details: at the same quinidine concentration, compared to dextromethorphan, Figure 6
Procedure: (§5) The samples were used for the determination of plasma drug levels by LC/MS/MS for estimating pharmacokinetic parameters. This study was conducted in accordance with Shanghai Medicilon Inc. Standard Operating Procedures (SOPs). The Sponsor provided the test compounds and internal standard compound.
(§6) The combination dose was prepared by mixing both by 1:1 to yield a concentration of 1 mg/mL for each compound. […] The doses were given BID orally with an interval of 12 hours. […] Dosing volume of Quinidine was determined based on the dose each animal was getting. Dose volumes for each test animal was determined based on individual body weight. Body weights were taken on each day of dose administration and were be recorded.
(§7) Dilution using cynomolgus monkey plasma blank were applied if the sample concentration was over the ULOQ of calibration standard curve. The data acquisition and control system was created using Analyst 1.4 software from ABI Inc.

[4] = monkeys
Procedure: as §5, §6, §7

| Structure (SMILES) | stability in monkey liver microsomes [1] | remained intact after 30 minutes of incubation [2] | urine levels of parent compound [3] | plasma levels ([4]; co administered with the same amount of quinidine, compared to dextromethorphan, Figure 5) | metabolism to deuterated dextrorphan isotopologues ([4]; plasma, without quinidine, relative to metabolism of dextromethorphan to dextrorphan, Figure 4) |
| --- | --- | --- | --- | --- | --- |
| [2H]C([2H])([2H])Oc1ccc2c(c1)[C@]13CCCC[C@@H]1[C@H](C2)N(C([2H])([2H])[2H])CC3 [Compound 101, (+)-3-d3-methoxy-17-d3-methyl-(9α,13α,14α)-morphinan] | greater stability than dextromethorphan | approximately 45% | less Compound 101 in the urine than dextromethorphan | greater than dextromethorphan plasma levels | reduced relative to metabolism of dextromethorphan to dextrorphan |
| COc1ccc2c(c1)[C@]13CCCC[C@@H]1[C@H](C2)N(C)CC3 [dextromethorphan, (+)-3-methoxy-17-methyl-(9α,13α,14α)-morphinan, reference compound] |  | about 33% |  |  |  |
| [2H]C([2H])([2H])Oc1ccc2c(c1)[C@]13CCCC[C@@H]1[C@H](C2)N(C)CC3 [Reference compound 100, (+)-3-d3-methoxy-17-methyl-(9α,13α,14α)-morphinan] | greater stability than dextromethorphan | ~42% |  |  |  |
